This assay concerns the target Histone-lysine N-methyltransferase EHMT2 (Homo sapiens) (UniProt Q96KQ7). Kind of assay: qHTS Assay for Inhibitors of Histone Lysine Methyltransferase G9a. As to activity, negative = inhibition: nearly all actives have a fitted effect of over 75% in size. The note with it: G9a H3K9 monomethylation, AlphaScreen, 2 h. (In general: qHTS replaces the single test concentration by a dilution series.)

Amino acid sequences for entries named in this document (tags omitted). A change or cut given only in a name is not applied to a line headed by its entry.
UniProt Q96KQ7: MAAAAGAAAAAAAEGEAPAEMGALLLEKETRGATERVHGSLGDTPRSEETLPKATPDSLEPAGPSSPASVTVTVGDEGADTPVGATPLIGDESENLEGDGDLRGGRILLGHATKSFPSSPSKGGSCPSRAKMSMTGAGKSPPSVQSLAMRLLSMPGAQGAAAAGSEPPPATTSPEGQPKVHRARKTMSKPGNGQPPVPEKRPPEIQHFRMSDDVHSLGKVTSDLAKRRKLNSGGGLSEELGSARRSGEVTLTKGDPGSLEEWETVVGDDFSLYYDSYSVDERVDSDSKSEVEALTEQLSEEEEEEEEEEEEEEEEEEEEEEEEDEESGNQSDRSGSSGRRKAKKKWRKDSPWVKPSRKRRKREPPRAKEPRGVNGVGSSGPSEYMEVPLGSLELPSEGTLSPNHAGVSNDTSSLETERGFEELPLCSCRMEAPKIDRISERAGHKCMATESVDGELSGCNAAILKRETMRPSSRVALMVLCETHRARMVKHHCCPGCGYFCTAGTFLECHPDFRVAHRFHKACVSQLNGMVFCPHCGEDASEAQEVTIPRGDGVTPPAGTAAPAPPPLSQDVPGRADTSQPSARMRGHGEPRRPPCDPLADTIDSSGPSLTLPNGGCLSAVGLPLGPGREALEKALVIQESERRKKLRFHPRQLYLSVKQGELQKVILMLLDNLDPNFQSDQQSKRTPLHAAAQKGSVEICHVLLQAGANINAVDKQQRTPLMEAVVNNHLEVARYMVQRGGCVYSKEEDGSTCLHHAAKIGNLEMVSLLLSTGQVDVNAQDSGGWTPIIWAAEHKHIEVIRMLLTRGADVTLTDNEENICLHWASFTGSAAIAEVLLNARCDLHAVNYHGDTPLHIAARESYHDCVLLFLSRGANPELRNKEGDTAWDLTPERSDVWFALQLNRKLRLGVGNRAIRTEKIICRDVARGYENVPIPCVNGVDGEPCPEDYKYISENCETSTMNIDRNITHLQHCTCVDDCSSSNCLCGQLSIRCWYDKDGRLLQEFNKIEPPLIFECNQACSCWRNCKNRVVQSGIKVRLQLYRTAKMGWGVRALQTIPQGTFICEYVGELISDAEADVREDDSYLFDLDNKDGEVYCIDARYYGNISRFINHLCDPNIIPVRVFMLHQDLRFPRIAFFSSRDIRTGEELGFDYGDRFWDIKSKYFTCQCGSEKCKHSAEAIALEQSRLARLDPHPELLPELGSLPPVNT

SMILES strings stand for the structures. Several values for one entry are separate records, joined by “and”; a condition that tells them apart may be missing. Equal entries are not always repeated. The entries are a selection whose mix differs from that of the whole data set. Results filed as inconclusive are left out. Activity calls are given as the source filed them. Calls follow the shape of the dose curve; as a rule, active = well fitted inhibition curve with a large enough effect; inconclusive = small, poorly fitted or top-dose-only effect; inactive = no such curve, though single readings can be large or run the other way.
% is scaled to controls: 0 for no effect and ±100 for the full control effect.

For the compound `C[C@@H](Cc1ccc(O)cc1)NC[C@@H](O)c1cc(O)cc(O)c1`, the activity, negative = inhibition (at 12.7 µM (top of the series)) was inactive: -42.2%.

Regarding `CS(=N)(=O)CC[C@@H](N)C(=O)O` (stereo not given in full), the activity, negative = inhibition (at 21.5 µM (top of the series)) is inactive: 15.6%.

With `CC(Cc1ccc(O)cc1)NCC(O)c1cc(O)cc(O)c1` (stereo not given), the activity, negative = inhibition reads like this: (at 2.33 µM (top of the series)) inactive: -34.9%; (at 12.7 µM (top of the series)) inactive: 19.5% and inactive: 35.4%.

As to `CS(=N)(=O)CC[C@H](N)C(=O)O` (stereo not given in full), the activity, negative = inhibition result is “inactive”.

The values above are taken from PubChem BioAssay AID504332 (National Center for Advancing Translational Sciences (NCATS), 2011).
